{"sequences": {"note": "The chains behind the UniProt entries cited, without tags or fusion partners. Residues count along the entry.", "UniProt P34969, 1-445 isoform P34969-2": "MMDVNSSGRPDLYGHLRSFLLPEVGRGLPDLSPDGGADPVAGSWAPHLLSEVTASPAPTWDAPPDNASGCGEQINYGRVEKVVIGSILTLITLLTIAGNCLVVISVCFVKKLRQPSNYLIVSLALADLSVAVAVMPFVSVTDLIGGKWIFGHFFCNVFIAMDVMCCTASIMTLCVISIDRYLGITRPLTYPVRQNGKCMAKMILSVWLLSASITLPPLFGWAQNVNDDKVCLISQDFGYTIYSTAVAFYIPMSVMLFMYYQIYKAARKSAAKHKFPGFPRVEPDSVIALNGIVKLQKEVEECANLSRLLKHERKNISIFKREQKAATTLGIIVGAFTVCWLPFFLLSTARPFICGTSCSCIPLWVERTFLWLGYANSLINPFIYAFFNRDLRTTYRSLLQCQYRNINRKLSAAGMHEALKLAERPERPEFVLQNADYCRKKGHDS"}, "source": "patent US20260224527A1", "about": "“USES OF ANTI-PSYCHOTIC AGENTS” (LB PHARMACEUTICALS INC., priority 2023, published 2026)", "origin": "cited, not measured here", "biological_target": "HT7a receptor (Homo sapiens, UniProt P34969)", "conditions": "cited from earlier work"}
{"compound": "CCN1CCCC1CNC(=O)c1cc(S(=O)(=O)CC)c(N)cc1OC", "note": "(stereo not shown) [Amisulpride, 4-amino-N-(((1-ethyl-2-pyrrolidinyl)methyl)-5-(ethylsulfonyl))-2-methoxybenzamide]", "values": [{"measurement": "Ki", "value": "low double digit"}]}
